Assay results taken from ChEMBL document CHEMBL3621126, “Difluoromethyl ketones: Potent inhibitors of wild type and carbamate-insensitive G119S mutant Anopheles gambiae acetylcholinesterase” (Bioorg Med Chem Lett, 2015).

The chains behind the UniProt entries cited, without tags or fusion partners. Where a name states a change or a piece, a line headed by the entry shows the natural chain unless it says otherwise.
UniProt P22303: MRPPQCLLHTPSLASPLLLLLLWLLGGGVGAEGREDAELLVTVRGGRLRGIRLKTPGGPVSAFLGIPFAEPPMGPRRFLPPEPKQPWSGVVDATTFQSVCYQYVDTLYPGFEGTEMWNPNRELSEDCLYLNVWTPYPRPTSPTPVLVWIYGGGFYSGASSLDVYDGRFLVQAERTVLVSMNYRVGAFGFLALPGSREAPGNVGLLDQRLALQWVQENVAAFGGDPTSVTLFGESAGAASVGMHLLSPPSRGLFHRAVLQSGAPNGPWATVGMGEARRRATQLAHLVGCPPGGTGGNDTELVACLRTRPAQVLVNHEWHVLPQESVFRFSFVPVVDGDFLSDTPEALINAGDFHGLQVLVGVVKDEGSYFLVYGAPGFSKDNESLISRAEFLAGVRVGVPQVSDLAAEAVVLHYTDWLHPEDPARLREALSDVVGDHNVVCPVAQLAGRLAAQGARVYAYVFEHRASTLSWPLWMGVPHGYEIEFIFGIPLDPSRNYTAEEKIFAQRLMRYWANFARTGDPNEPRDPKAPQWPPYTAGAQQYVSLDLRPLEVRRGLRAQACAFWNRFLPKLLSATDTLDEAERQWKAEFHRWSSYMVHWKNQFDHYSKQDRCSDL

Key:
[1] = target: T1, Acetylcholinesterase (Homo sapiens, UniProt P22303); experiment: Inhibition of recombinant human AChE after 10 mins by Ellman assay
[2] = target: T1, Acetylcholinesterase; experiment: Inhibition of recombinant human AChE after 60 mins by Ellman assay
[3] = Inhibition of recombinant Anopheles gambiae AChE G119S mutant after 60 mins by Ellman assay

## CC(C)(C)c1cccc(C(=O)CF)c1
[1]
  IC50: 578 nM
[2]
  IC50: 715 nM
[3]
  IC50: > 10 µM
